Source: patent US3992528A, “Anti-viral substance containing peptide, fatty acid and carbohydrate moieties” (Research Corporation, priority 1975, dated 1976)

## phytostreptin
Methyl ethyl ketone
  solubility in methyl ethyl ketone: not soluble
water
  solubility in water: soluble
